Data published in patent publication US6153429A (priority 1997, dated 2000).

Experiments:
[1] = system: T1 cells (C3H/10T1/2 fibroblasts transfected with pdBPV-1 (142-6)); conditions: for Ratio of Treated: Untreated Foci: mouse, c3h/10t1/2 t1 cells, 504 h
[2] = system: S1 clone (C3H/10T1/2 fibroblasts transfected with pdBPV-1 (142-6)); assay type: cell-based, mouse; conditions: 0.5 ng/ml mezerein, 21 days; average of 21 in the absence of mezerein

SMILES	#Foci In Treated Cells [1]	Ratio of Treated: Untreated Foci [1]	average number of foci in the presence of mezerein, subclone T1 [1] [foci]	average number of foci in the presence of mezerein, S1 clone [2] [foci per 60 mm^2 plate]
O[As](O)O [Arsenite]	75 + 2	1.2	–	–
c1ccc2c(c1)cc1ccc3cccc4ccc2c1c34 [Benzo[a]pyrene, benzo[a]pyrene]	90 + 6	–	–	–
[Cd] [Cadmium]	100 + 7	1.4	–	–
CC/C(=C(/CC)c1ccc(O)cc1)c1ccc(O)cc1 [Diethylstilbestroel, diethylstilbestroel]	83 + 4	–	–	–
C=C(C)C12OC3(c4ccccc4)OC1C1C4OC4(CO)C(O)C4(O)C(=O)C(C)=CC4C1(O3)C(C)C2OC(=O)/C=C/C=C/c1ccccc1 (stereo not shown) [Mezerein, mezerein]	143 + 18	–	70	60
O=[As](O)(O)O [arsenate]	91 + 5	1	–	–
Cn1c(=O)c2c(ncn2C)n(C)c1=O [caffeine]	64 + 3	–	–	–
C1CCOC1 [tetrahydrofuran]	70 + 7	–	–	–
